In the test the target is hCB2R (Homo sapiens, UniProt P34972). Nature of the test: [35S]-GTPγS binding assay, CB2R-containing membranes. In general terms: GTPγS is a poorly hydrolysed GTP analogue; its binding reports G protein activation.

By UniProt entry, the sequences of proteins in these tests, tags left out.
UniProt P34972, whole entry: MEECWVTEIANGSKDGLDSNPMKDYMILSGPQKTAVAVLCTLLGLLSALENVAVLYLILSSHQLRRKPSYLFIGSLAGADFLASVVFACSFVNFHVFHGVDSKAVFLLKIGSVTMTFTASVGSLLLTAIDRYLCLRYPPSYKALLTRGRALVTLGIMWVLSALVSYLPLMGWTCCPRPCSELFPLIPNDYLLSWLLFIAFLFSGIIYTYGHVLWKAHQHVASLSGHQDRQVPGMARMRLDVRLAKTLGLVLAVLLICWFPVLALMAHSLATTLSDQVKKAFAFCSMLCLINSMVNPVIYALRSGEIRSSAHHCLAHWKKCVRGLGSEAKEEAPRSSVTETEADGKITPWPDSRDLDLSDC

As a reminder, the IC50 is the concentration at which inhibition is half-maximal. Regarding `CCCCCCC(C)(C)c1cc(OC)c([C@@H]2C=C(CO)[C@@H]3C[C@H]2C3(C)C)c(OC)c1` [HU308, [(1R,2R,5R)-2-[2,6-dimethoxy-4-(2-methyloctan-2-yl)phenyl]-7,7-dimethyl-4-bicyclo-[3.1.1]hept-3-enyl] methanol, reference compound], the IC50 was 64.5 ± 1.6 nM.
